# According to US6127420A, “L-N^5 -(1-imino-3-alkenyl) ornithine and related compounds and use thereof” (priority 1998, dated 2000):
# Assays:
# nNOS = nNOS (Rattus norvegicus, UniProt P29476); conditions: read-out: nNOS Ki, 25° C., pH 7.4, initial rate conditions, duplicates agreed within ±5%
# N=C(N)NCCC[C@H](N)C(=O)O = assay: purified protein, by the assay type; conditions: other: Km determined in the absence of inhibitor, iNOS; 25.0 °C
Ki (nNOS) [nM],Molecule,Km (N=C(N)NCCC[C@H](N)C(=O)O) [µM]
1700,CC(=N)NCCC[C@H](N)C(=O)O [L-NIO],
,iNOS (Mus musculus),12.5
